Data reported in patent US10117854B2, “Method for treating hepatic encephalopathy” (MEDDAY PHARMACEUTICALS, priority 2016, dated 2018).

Test system: BDL rats
Assay: Open Field Test (behavioral test of hepatic encephalopathy)
Format: in vivo, rat
Settings: biotin 300 mg/kg of food, compared to Sham rats
Description: Bile duct ligation (BDL) was used as a biliary cirrhosis model. All rats oh this group were operated on. They were randomly separated in two groups: BDL or simple laparotomy (SHAM, control-group). The BDL procedure was conducted as described previously (Kountouras J, Prolonged bile duct obstruction: a new experimental model for cirrhosis in the rat; Br J Exp Pathol 1984) and as controlled in our lab. Surgery was done under total anesthesia with […] isofluran (Aerrane, Baxter Maurepas) 3% mixed with air. Analgesia was done by sub-cutaneous injection of buprenorphin 2% (Buprécare 0.3 mg/ml, Axience) immediately before and after surgery. Rifaximin (Sigma Aldrich) was mixed with water at the dose of 50 mg/kg/d and began 3 days after the surgery. […] To assess the hepatic encephalopathy, the Open Field Test (BioSeb) was used, a behavioral test validated in BDL rats to explore neurological impairments (Leke, Plos One 2012; 7(5)). The test was done the day of sacrifice, in standardized experimental conditions (hour, place, light, noise). […] The data analyzed after 6 minutes of experiments were: total distance travelled (cm), time of mobility (s), speed (cm/s), number of zone changes, distance travelled in the center and periphery zone, time spent in the center and periphery zone, number of rearing, total duration of rearing.

`O=C(O)CCCC[C@@H]1SC[C@@H]2NC(=O)N[C@@H]21` [biotin] was tested, and the “total distance travelled, mean speed and duration of activity (OpenField)” value was “almost normalized”.
